Measurements published in ChEMBL document CHEMBL3393014, “Discovery of 5-(1H-indol-5-yl)-1,3,4-thiadiazol-2-amines as potent PIM inhibitors” (Bioorg Med Chem Lett, 2015).

Protein sequences, listed by entry. Tags and fused reporters are not part of them. Lines headed by an entry give the natural chain unless they say otherwise; changes in a name come on top.
UniProt Q9P1W9: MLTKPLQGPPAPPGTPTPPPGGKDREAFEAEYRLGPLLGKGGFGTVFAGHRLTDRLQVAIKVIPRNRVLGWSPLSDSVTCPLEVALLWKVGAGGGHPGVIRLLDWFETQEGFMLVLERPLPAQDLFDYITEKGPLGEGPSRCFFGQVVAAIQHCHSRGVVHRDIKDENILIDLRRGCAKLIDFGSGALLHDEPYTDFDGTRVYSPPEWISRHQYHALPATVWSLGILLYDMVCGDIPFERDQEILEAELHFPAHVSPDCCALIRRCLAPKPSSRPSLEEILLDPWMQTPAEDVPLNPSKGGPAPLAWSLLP

What was measured:
[1] = molecular target: Serine/threonine-protein kinase pim-3 (Homo sapiens, UniProt Q86V86); experiment: Inhibition of full length recombinant PIM3 (unknown origin) using biotinylated-BAD peptide as substrate assessed as phosphorylation at serine 112 after 45 mins by HTRF method
[2] = molecular target: Serine/threonine-protein kinase pim-2 (Homo sapiens, UniProt Q9P1W9); experiment: Inhibition of PIM2 in human U2OS cells assessed as phosphorylation of BAD; type: cell-based

IC50 [1] [µM]	IC50 [2] [µM]	SMILES
0.002	–	CC(C)Oc1cccc(-c2c[nH]c3ccc(-c4nnc(N)s4)cc23)n1
–	6.9	Nc1nnc(-c2ccc3[nH]cc(-c4cccc(OC5CCCC5)n4)c3c2)s1
